Assay results reported in PubChem BioAssay AID680 (PCMD, 2007).
The entries are a selection whose mix differs from that of the whole data set. Activity calls are given as the source filed them. Rule as the data show it: active = inhibition above about 20% (passing the limit was not always enough); inactive = the rest.

By UniProt entry, the sequences of proteins in these tests, tags left out. Residues count along the entry.
UniProt P03951, 19-387 limits assumed: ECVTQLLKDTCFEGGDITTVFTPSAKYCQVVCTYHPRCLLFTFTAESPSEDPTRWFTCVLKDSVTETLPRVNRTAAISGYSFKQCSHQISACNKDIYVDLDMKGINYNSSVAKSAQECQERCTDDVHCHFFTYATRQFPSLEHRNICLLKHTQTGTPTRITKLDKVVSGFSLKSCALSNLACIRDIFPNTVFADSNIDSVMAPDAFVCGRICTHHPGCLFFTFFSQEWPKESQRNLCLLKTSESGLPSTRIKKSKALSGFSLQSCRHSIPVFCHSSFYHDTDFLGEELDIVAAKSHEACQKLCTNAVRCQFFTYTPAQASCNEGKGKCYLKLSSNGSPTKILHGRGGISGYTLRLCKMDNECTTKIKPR
UniProt P03951, 388-625 limits assumed: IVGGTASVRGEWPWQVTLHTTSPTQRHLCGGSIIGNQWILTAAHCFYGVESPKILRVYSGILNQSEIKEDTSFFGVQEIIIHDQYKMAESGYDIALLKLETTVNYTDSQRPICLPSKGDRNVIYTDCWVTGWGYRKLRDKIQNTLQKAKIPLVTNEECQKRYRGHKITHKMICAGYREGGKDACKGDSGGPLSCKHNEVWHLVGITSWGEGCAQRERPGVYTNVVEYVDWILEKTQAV

Each compound was assayed against Coagulation factor XI (Homo sapiens) (UniProt P03951) (assay: human factor XIa inhibition by mixtures – biochemical, 10-compound mixtures, primary screen (AID 680;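 also: each value is inhibition by a whole ten-compound pool holding the compound; 0% = enzyme with no mixture and 100% = wells lacking enzyme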)). Details: purified FXIa, fluorogenic substrate, pooled mixtures; at 5 µM; hits give high values.

Structure (SMILES) | inhibition
N#CC1(Nc2ccccc2)CCN(CCc2ccccc2)CC1 | inactive: 8.17%
O=C(OC1CN2CCC1CC2)C1c2ccccc2Oc2ccccc21 (stereo unspecified) | inactive: 5.59%
CCOc1ncccc1C(=O)NCC1(N2CCOCC2)CCCCC1 | inactive: 2.43%
CCC(CO)(C(=O)OC1CN2CCC1CC2)c1ccccc1 (stereo unspecified) | inactive: 3.62%
Fc1ccccc1NC1CCN(Cc2ccccc2)CC1 | inactive: 7.22%
N/C(=N\O)c1c(N)no[n+]1[O-] | inactive: 3.27%
